Target: Toll-like receptor 4 (Homo sapiens, UniProt O00206)
Assay: Inhibition of induction of NF-kappaB by LPS in HEK293 cells co-transfected with TLR4, CD14 and MD2
In short: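 HEK293 cells cotransfected with TLR4, CD14 and MD2 are cultured in medium containing fetal bovine serum and stimulated with LPS. NF-κB induction is quantified, and IC50 is the concentration inhibiting NF-κB induction by 50%.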

Chains of the proteins cited; added tags and fusions are not shown.
UniProt O00206, whole entry: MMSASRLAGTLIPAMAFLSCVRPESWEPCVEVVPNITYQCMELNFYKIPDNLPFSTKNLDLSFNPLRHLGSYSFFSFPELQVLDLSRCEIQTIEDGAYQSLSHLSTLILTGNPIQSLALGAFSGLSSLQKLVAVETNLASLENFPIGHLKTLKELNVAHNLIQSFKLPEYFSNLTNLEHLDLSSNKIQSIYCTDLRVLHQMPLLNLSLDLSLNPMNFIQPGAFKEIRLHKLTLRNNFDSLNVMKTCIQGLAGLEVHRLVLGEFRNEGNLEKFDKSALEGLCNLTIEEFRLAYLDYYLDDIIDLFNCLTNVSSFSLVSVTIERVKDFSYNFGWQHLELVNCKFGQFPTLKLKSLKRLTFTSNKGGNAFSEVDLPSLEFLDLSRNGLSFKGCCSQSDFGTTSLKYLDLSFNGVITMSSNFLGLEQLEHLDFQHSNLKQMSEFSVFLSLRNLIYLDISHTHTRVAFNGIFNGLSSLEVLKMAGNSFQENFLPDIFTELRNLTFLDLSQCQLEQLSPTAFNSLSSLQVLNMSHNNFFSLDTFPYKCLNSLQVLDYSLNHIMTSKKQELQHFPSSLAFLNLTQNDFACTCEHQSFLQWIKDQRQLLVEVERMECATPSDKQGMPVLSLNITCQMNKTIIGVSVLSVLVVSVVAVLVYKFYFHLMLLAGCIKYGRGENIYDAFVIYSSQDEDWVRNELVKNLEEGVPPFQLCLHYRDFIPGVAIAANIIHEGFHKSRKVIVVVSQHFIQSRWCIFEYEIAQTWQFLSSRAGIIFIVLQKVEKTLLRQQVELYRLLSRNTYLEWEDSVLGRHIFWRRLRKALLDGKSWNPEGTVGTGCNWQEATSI

IC50: 1230 nM
SMILES: CCC(C)CCCCC(=O)N[C@@H](CCN)C(=O)N[C@H](C(=O)N[C@@H](CCN)C(=O)N[C@H]1CCNC(=O)[C@H]([C@@H](C)O)NC(=O)[C@H](CCN)NC(=O)[C@H](CCN)NC(=O)[C@H](CC(C)C)NC(=O)[C@@H](Cc2ccccc2)NC(=O)[C@@H](CCN)NC1=O)[C@@H](C)O (stereo partly specified) [POLUMYXIN B]
